## Measured affinities in a library of Ab-14 light chain variants

Source: Li et al. 2023 (doi:10.1038/s41467-023-39022-2), MIT Lincoln Laboratory and A-Alpha Bio; data file from the FLAb repository.

Antigen: PDVDLGDISGINAS, a 14-residue peptide of the SARS-CoV-2 spike HR2 region.

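Phage display of a naive human antibody library on the peptide gave the parent. This is the validation round: designs drawn from the data on random variants, tested in the same kind of assay. Their group label is 14L_GP_Gibbs (GP: Gaussian process model; Gibbs: Gibbs sampling; a sequence that several methods proposed may carry one label only). AlphaSeq pools MATa yeast showing the antibodies with MATalpha yeast showing the peptide. After mating in shaken culture at 30 °C for 16 h, diploids were selected and their barcode pairs sequenced. Read counts were normalised to the haploid input and turned into Kd by a linear fit to BCL2-family pairs of known affinity, for each replicate. Mating was done six times.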

Parent: Ab-14, a human scFv built as VH, the linker GGGGSGGGGSGGGGS, VL. Only the CDRs of the light chain vary.
VH: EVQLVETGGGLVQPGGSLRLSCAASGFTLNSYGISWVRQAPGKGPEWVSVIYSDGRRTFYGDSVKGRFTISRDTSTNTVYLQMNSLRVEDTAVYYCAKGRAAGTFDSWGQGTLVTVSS
VL: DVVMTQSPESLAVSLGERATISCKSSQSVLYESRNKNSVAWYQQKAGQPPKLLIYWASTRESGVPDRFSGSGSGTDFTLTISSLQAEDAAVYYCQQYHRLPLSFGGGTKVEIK

Changes read parent residue, position, new residue, counted from the first residue of the VL shown.
The read-out is the apparent dissociation constant on a log10 scale (nM): the lower, the stronger.
Where no diploid with the target was found in that replicate, the entry reads "nd": below detection, most likely a poor binder, though not proof of it.
Background: pairings of all light chain designs with three empty control strains gave a value in 4% of cases (median 2.64, 5th percentile 1.59). Values in that range, when seen in few replicates, are hard to tell from nonspecific mating. For each scFv, signals with the empty controls are counted beside the result, with their mean in brackets.
A sequence measured in both rounds can read differently, since the two assays cover different ranges.
The authors' rule: three or more of the six replicates give a measured affinity, fewer mean a poor binder.
The parent sequence was in this pool as ten entries: three were never detected, three once, and four in most replicates, with averages from 0.34 to 2.37.

changes | replicates, log10 nM | empty controls
S25L/S26L/Q27I/Y31D/S33E/K36D/W56N/T59H/E61L | 1.23 / 0.70 / 0.77 / 0.61 / 0.66 / 0.89 | 2/18 (2.25)
S25L/V29M/K36V/W56Q/S103M | -0.14 / -0.27 / -0.47 / -0.31 / -0.38 / -0.09 | 1/18 (1.82)
K24L/S25L/Q27G/V29M/L30G/S33Q/W56D/Q96A | -0.31 / 0.06 / 0.15 / -0.26 / 0.13 / 0.28 | 1/18 (3.20)
S25L/L30E/Y31Q/E32L/W56Q/T59W/S62V/Q96A | 1.12 / 2.34 / 0.81 / nd / 2.14 / 0.76 | 0/18
S25L/V29Q/W56S/T59H/S62H | 0.69 / 0.49 / 0.56 / 0.41 / 0.47 / 0.46 | 2/18 (2.64)
S25I/V29Y/Y31M/W56N/E61C/S62W | 0.02 / -0.03 / 0.10 / -0.13 / -0.08 / 0.04 | 2/18 (2.24)
S25L/Q27P/S28E/V29E/L30Q/N35Q/W56N/T59L | 0.29 / 0.07 / 0.14 / -0.03 / -0.12 / 0.14 | 0/18
S25L/S26D/V29Q/N37Q/W56N/T59Q/E61C | -0.16 / 0.17 / -0.10 / -0.29 / 0.00 / 0.05 | 2/18 (2.55)
S26P/Q27F/L30Y/E32G/S33D/W56Q | 1.35 / 0.63 / 0.82 / 0.76 / 0.85 / 0.81 | 1/18 (2.35)
S25F/S26E/Q27P/V29W/K36V/W56N/T59Q/E61S/S62D | 0.29 / 0.28 / 0.04 / 0.34 / 0.17 / 0.34 | 1/18 (3.07)
S25V/S26Y/Q27W/L30D/S33D/W56H/T59V | 0.57 / 0.68 / 0.57 / 0.46 / 0.26 / 0.70 | 0/18
S25V/Q27W/L30E/Y31L/E32Q/N37G/S38Q/W56S/S62L | 0.64 / 0.39 / 0.16 / 0.30 / 0.36 / 0.43 | 1/18 (3.11)
S26Q/Y31D/S33E/K36D/E61L | 1.98 / 1.68 / 1.83 / 1.30 / 0.81 / nd | 0/18
S25V/S28G/V29M/L30W/N35M/W56N/T59Q/S62Q/S103Q | 0.17 / -0.07 / -0.13 / 0.12 / -0.04 / 0.07 | 1/18 (2.94)
S25V/S26M/S28E/V29M/N35M/K36I/W56N/T59Q | nd / 2.61 / 1.98 / 2.56 / 2.94 / 2.71 | 0/18
S25H/Q27I/L30M/Y31G/S33D/W56D | 0.22 / -0.16 / -0.05 / -0.04 / 0.00 / -0.02 | 1/18 (2.01)
S25L/S26E/Q27E/S28W/L30E/W56H/E61L | 0.03 / 0.02 / 0.04 / -0.07 / -0.05 / 0.07 | 1/18 (3.78)
S25Q/S26Q/V29M/K36S/W56N/T59Q/S62E/S103M | 0.16 / 0.10 / -0.01 / -0.24 / 0.11 / 0.00 | 0/18
S25V/S26D/V29Q/L30D/W56Q/T59Q/S62Q/S103Y | -0.22 / -0.04 / -0.34 / -0.20 / -0.28 / -0.22 | 0/18
S25I/Q27C/V29E/L30Y/S33D/N37M/W56D/T59Q/E61L | 0.19 / -0.15 / 0.09 / -0.50 / 0.12 / 0.15 | 0/18
S25I/Q27G/L30M/Y31M/E32L/S33Q/W56E/S58N | 0.50 / -0.07 / -0.14 / -0.16 / 0.13 / 0.22 | 2/18 (2.39)
S25E/V29E/L30P/Y31G/W56N/S58M/T59Q/E61M | 0.66 / 0.61 / 0.34 / 0.33 / 0.64 / 0.60 | 2/18 (3.17)
S25L/S26P/V29D/S33G/K36S/W56H/E61F | 0.16 / -0.01 / -0.11 / -0.15 / -0.05 / 0.05 | 0/18
S25F/S26E/Q27V/V29M/K36G/W56N/E61S | 1.83 / 0.53 / 1.24 / 1.41 / 0.56 / 1.15 | 1/18 (2.70)
S25Y/S26Q/Q27E/S28L/V29E/L30P/W56N/S62E | 0.32 / 0.15 / 0.04 / -0.13 / 0.00 / 0.00 | 2/18 (2.77)
S25F/E32G/S33E/N35D/K36G/W56N/T59Q/E61L | 0.44 / 0.26 / 0.14 / 0.13 / 0.31 / 0.56 | 3/18 (2.68)
S25F/V29W/N35V/S38N/W56N/T59Q/Q96M | nd / 2.26 / 1.38 / 2.46 / nd / nd | 0/18
S25L/S26Q/Q27M/V29A/L30E/E32Q/W56S/T59Q/S62A | -0.44 / -0.51 / -0.44 / -0.78 / -0.70 / -0.38 | 1/18 (2.61)
S25I/V29Q/K36T/N37K/W56N/E61C | 0.02 / 0.13 / 0.16 / -0.06 / -0.01 / 0.09 | 1/18 (3.49)
S25V/S26D/S28W/L30E/E32G/W56S/T59Q/E61S | 0.24 / 0.17 / 0.25 / 0.00 / 0.04 / 0.06 | 1/18 (2.24)
S25M/L30E/Y31Q/E32L/S33D/N35W/K36W/W56Y/T59Q/S62Q | 2.20 / 1.35 / 2.36 / 1.05 / 1.24 / 1.94 | 0/18
S25L/S26Q/Y31M/E32G/W56Q/E61M/S62V/Q96A | 0.72 / 1.07 / 0.74 / 0.71 / 0.88 / 0.68 | 1/18 (2.88)
S25Y/S26E/S28Q/V29E/Y31T/W56N/R99Q | 0.48 / 0.33 / 0.38 / -0.04 / 0.19 / 0.60 | 1/18 (2.18)
S25V/L30G/E32G/W56E/S103Y | 0.39 / 0.30 / 0.21 / 0.24 / 0.29 / 0.43 | 3/18 (3.49)
S25F/V29T/W56N/S58Q/E61L/S62E | -0.23 / -0.31 / -0.44 / -0.42 / -0.44 / -0.38 | 0/18
S25L/V29D/L30D/S33M/W56E/S58Q/S62Q | -0.07 / -0.01 / -0.01 / -0.12 / -0.10 / 0.10 | 3/18 (3.98)
S25L/S26Q/V29Q/W56D/E61L/S62V/Q96A | 0.31 / 0.06 / -0.12 / 0.08 / -0.08 / 0.01 | 1/18 (2.36)
S25L/S26E/Q27G/S28Q/V29H/K36A/W56N/E61M | -0.26 / -0.16 / -0.57 / -0.41 / -0.52 / -0.42 | 2/18 (1.96)
S25A/Q27P/V29M/L30E/W56H/T59L/E61L/S62E | 0.24 / 0.16 / -0.06 / -0.16 / -0.07 / 0.01 | 1/18 (4.09)
S25L/S26Y/V29E/L30W/N35M/S38N/W56N/T59V | 0.30 / 0.32 / 0.27 / 0.19 / 0.41 / 0.14 | 0/18
S25M/S26A/V29N/L30P/K36S/W56N/T59Y/S62M | 0.36 / 0.26 / -0.32 / -0.24 / -0.24 / 0.19 | 1/18 (2.41)
S25Y/S26E/Q27F/V29D/Y31N/W56E | 0.30 / 0.12 / 0.57 / 0.66 / 0.07 / 0.99 | 2/18 (2.13)
S25F/S26Q/V29Q/S33Q/K36Q/W56S/T59Y/E61M | 0.68 / nd / 0.09 / -0.26 / 1.50 / 1.34 | 0/18
S25Q/S28A/L30P/S33Q/S38N/W56E/A57G | -0.28 / -0.52 / -0.52 / -0.75 / -0.70 / -0.52 | 0/18
S25E/V29E/L30P/W56N/S58M/T59Q/E61M | -0.14 / -0.16 / -0.26 / -0.42 / -0.24 / -0.13 | 0/18
K24H/S25Q/L30G/Y31Q/S33E/N35Q/W56A/S62Q | 0.39 / 0.33 / 0.22 / -0.16 / 0.23 / 0.24 | 1/18 (3.61)
K24A/S25F/Q27G/V29H/K36Q/W56S/S62E | -0.16 / -0.47 / -0.45 / -0.45 / -0.45 / -0.06 | 0/18
S25L/S33M/N35V/W56E/S58V | 0.18 / 0.17 / -0.03 / 0.11 / 0.12 / 0.24 | 1/18 (2.37)
S25V/V29T/S33D/W56N/T59V/E61S | -0.46 / -0.69 / -0.77 / -0.78 / -0.87 / -0.40 | 0/18

Repeated from above, the 3 best binders with a signal in all replicates:

changes | replicates, log10 nM | empty controls
S25V/V29T/S33D/W56N/T59V/E61S | -0.46 / -0.69 / -0.77 / -0.78 / -0.87 / -0.40 | 0/18
S25Q/S28A/L30P/S33Q/S38N/W56E/A57G | -0.28 / -0.52 / -0.52 / -0.75 / -0.70 / -0.52 | 0/18
S25L/S26Q/Q27M/V29A/L30E/E32Q/W56S/T59Q/S62A | -0.44 / -0.51 / -0.44 / -0.78 / -0.70 / -0.38 | 1/18 (2.61)